Results: patent US9464076B2, “Benzothiophene derivative” (Daiichi Sankyo Company, Limited, priority 2013, dated 2016)

Sequences of proteins named here, by UniProt entry; tags and fusion partners are left off. Residues count along the entry.
UniProt Q9Y233, 267-1055: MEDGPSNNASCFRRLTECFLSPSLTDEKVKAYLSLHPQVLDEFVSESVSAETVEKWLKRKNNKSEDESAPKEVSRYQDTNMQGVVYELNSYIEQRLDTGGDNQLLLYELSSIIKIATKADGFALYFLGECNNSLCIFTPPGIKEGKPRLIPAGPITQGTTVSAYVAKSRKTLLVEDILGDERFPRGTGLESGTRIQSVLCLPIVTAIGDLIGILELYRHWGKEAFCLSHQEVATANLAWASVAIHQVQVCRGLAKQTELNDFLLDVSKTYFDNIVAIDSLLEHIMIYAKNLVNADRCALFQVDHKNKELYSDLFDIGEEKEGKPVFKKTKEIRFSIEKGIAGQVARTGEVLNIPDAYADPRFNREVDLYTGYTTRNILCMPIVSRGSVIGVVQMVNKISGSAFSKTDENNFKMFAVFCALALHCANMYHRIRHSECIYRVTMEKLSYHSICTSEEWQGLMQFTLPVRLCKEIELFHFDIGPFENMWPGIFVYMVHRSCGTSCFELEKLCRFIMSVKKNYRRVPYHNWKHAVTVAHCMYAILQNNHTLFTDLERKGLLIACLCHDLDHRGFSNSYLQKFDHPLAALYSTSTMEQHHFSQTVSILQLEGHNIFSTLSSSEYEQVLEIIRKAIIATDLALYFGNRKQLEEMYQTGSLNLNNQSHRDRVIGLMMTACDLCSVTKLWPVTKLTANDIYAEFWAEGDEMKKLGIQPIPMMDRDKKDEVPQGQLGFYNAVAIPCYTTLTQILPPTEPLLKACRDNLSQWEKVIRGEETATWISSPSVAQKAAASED

Key:
[1] = target: PDE10A (H-PDE10A2, Human Phosphodiesterase 10A2) (Homo sapiens (Human), UniProt Q9Y233); test: Measurement of PDE10A inhibitory activity-1 (3H-cAMP, recombinant enzyme); type: biochemical; details: H-PDE10A2, 64 nM cAMP, 25° C., 2 hours
Experimental: To a solution containing 20 mM Tris-HCl (pH 7.5), 1 mM MgCl2, 100 μM EDTA, 330 μg/ml bovine serum albumin, 50 kU/ml 5′-nucleotidase, 0.1 μCi ^3H-cAMP (64 nM cAMP), and PDE10A (H-PDE10A2, Human Phosphodiesterase 10A2, Scottish Biomedical), a test compound was added, and the mixture was reacted at 25° C. for 2 hours. To the reaction solution, QAE-Sephadex (17-0190-01, GE Healthcare Japan Corp.) suspended in 10 mM HEPES-Na (pH 7.0) (hereinafter, also referred to as a “QAE-Sephadex suspension”) was added, and the mixture was shaken for 1 minute and left standing for 5 minutes to obtain a supernatant. To the supernatant, a QAE-Sephadex suspension was further added, and the mixture was shaken for 1 minute and left standing for 5 minutes. Then, the obtained supernatant was transferred to LumaPlate (PerkinElmer, Inc.) and assayed using a radiation counter (TopCount NXT, PerkinElmer, Inc.).
The value of the sample reacted without the addition of both a test compound and PDE10A was defined as 0%, and the value of the sample reacted in the presence of PDE10A without the addition of a test compound was defined as 100%. […] As is evident, the compound of the present invention has PDE10A inhibitory activity.

PDE10A = PDE10A (Homo sapiens (Human), UniProt Q9Y233); test: Measurement of PDE10A inhibitory activity-2 (PDE10A fraction prepared from MOLT-4 cells); type: biochemical
Experimental: A human acute lymphoblastic lymphoma T cell line MOLT-4 (which can be purchased under ATCC No. CRL-1582 from ATCC) was cultured in an RPMI1640 medium containing 10% fetal bovine serum to obtain 5×10^8 MOLT-4 cells. The cells were recovered by centrifugation and suspended in 10 ml of buffer solution A (25 mM Tris-HCl, 5 mM 2-mercaptoethanol, 2 mM benzamidine, 2 mM EDTA, and 0.1 mM 4-(2-aminoethyl)benzenesulfonyl hydrochloride, pH 7.5). The cells were homogenized using a Polytron homogenizer and centrifuged (4° C., 25,000 g, 10 minutes). Then, the supernatant was further ultracentrifuged (4° C., 100,000 g, 60 minutes). The obtained supernatant was filtered through a 0.2 μm filter to obtain a soluble fraction.
HiTrap Q HP column (5 ml×2, GE Healthcare Japan Corp.) equilibrated with buffer solution A was charged with the obtained soluble fraction. Phosphodiesterase was eluted with 300 ml of buffer solution A containing a linear gradient solution of 0 to 0.8 M NaCl to recover sixty 5-ml fractions. Each fraction was tested for cAMP-metabolizing phosphodiesterase activity.
On the other hand, total RNA was prepared from Jurkat cells, one type of human T cell, and similarly subjected to RT-PCR. […] Eur J Biochem. 1999, 266 (3), 1118-2 has reported that PDE10A from the rat striatum and testis is eluted as an active peak centered around 250 mM NaCl.
For these reasons, this fraction was used as a solution for the evaluation of PDE10A inhibitory activity. The obtained solution was used to calculate the inhibitory activity (IC50) of a test compound in the same way as in the aforementioned test.

## COCc1ccc(C(C)=O)c2sc(C(=O)Nc3ccc4c(CO)cccc4n3)c(C)c12 [Example 78, 7-Acetyl-N-(5-(hydroxymethyl)quinolin-2-yl)-4-(methoxymethyl)-3-methylbenzo[b]thiophene-2-carboxamide methanesulfonate]
[1]; methanesulfonate
  IC50: 1.7 nM

## COCc1ccc(C(C)=O)c2sc(C(=O)Nc3ccc4c(CO)cccc4n3)c(C)c12 [Example 80, 7-Acetyl-N-(5-(hydroxymethyl)quinolin-2-yl)-4-(methoxymethyl)-3-methylbenzo[b]thiophene-2-carboxamide hydrobromide]
[1]; hydrobromide
  IC50: 1.1 nM

## [2H]C([2H])([2H])OCc1ccc(C(C)=O)c2sc(C(=O)Nc3ccc4c(CO)cccc4n3)c(C)c12 [Example 120, 7-Acetyl-N-(5-(hydroxymethyl)quinolin-2-yl)-4-((^2H3)methoxymethyl)-3-methylbenzo[b]thiophene-2-carboxamide]
PDE10A
  IC50: 0.64 nM

## COCc1ccc(C(C)=O)c2sc(C(=O)Nc3ccc4c(CO)cccc4n3)c(C)c12.Cl [Example 77, 7-Acetyl-N-(5-(hydroxymethyl)quinolin-2-yl)-4-(methoxymethyl)-3-methylbenzo[b]thiophene-2-carboxamide hydrochloride]
PDE10A; PDE10A fraction from MOLT-4 cells (peak around 250 mM NaCl), read-out: IC50
  IC50: 0.82 nM
[1]; hydrochloride
  IC50: 3.1 nM

## Cl.[2H]C([2H])(O)c1cccc2nc(NC(=O)c3sc4c(C(C)=O)ccc(COC)c4c3C)ccc12 [Example 119, 7-Acetyl-N-(5-(hydroxy(^2H2)methyl)quinolin-2-yl)-4-(methoxymethyl)-3-methylbenzo[b]thiophene-2-carboxamide hydrochloride]
PDE10A
  IC50: 0.34 nM

## COCc1ccc(C(C)=O)c2sc(C(=O)Nc3ccc4c(CO)cccc4n3)c(C)c12.Cc1ccc(S(=O)(=O)O)cc1 [Example 81, 7-Acetyl-N-(5-(hydroxymethyl)quinolin-2-yl)-4-(methoxymethyl)-3-methylbenzo[b]thiophene-2-carboxamide p-toluenesulfonate]
[1]; p-toluenesulfonate
  IC50: 1.9 nM

Where a name gives a salt, the structure may show the parent alone. Read-outs that look alike come from different tables or passages of the source.
